Earlier results in PMC7689490, “Designed CXCR4 mimic acts as a soluble chemokine receptor that blocks atherogenic inflammation by agonist-specific targeting” (Nature Communications, 2020).

Molecular target: human or mouse MIF
Conditions: read-out: KD for MIF; ref [63]

B1: Imalumab: anti-MIF antibody (antibody, chains of the INN, looked up, V domains shown)
VH: EVQLLESGGGLVQPGGSLRLSCAASGFTFSIYSMNWVRQAPGKGLEWVSSIGSSGGTTYYADSVKGRFTISRDNSKNTLYLQMNSLRAEDTAVYYCAGSQWLYGMDVWGQGTTVTVSS
VL: DIQMTQSPSSLSASVGDRVTITCRSSQRIMTYLNWYQQKPGKAPKLLIFVASHSQSGVPSRFRGSGSETDFTLTISGLQPEDSATYYCQQSFWTPLTFGGGTKVEIK
Kd: 1 to 3 nM
